The values below come from patent EP1147083B1, “ARYLPIPERAZINYL-CYCLOHEXYL INDOLE DERIVATIVES FOR THE TREATMENT OF DEPRESSION” (Wyeth, priority 1999, dated 2000).

Chains of the proteins cited; added tags and fusions are not shown.
UniProt P31652, whole entry: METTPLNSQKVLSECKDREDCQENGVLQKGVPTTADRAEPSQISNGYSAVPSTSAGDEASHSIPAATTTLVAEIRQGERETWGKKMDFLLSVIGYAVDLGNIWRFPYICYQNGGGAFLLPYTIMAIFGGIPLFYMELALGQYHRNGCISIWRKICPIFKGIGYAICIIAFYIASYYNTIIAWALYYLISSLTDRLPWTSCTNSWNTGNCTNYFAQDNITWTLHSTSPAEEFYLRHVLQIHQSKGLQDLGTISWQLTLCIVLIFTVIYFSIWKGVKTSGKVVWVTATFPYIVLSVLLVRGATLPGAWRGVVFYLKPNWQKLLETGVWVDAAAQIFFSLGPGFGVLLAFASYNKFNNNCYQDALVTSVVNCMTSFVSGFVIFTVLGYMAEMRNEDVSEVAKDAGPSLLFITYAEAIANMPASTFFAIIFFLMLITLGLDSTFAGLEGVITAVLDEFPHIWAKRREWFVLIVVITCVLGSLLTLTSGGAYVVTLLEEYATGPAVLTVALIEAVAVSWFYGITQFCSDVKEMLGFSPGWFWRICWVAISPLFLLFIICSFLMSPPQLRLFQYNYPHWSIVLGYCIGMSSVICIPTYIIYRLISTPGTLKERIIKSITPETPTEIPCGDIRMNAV

This test has as its target T1, serotonin transporter (Rattus norvegicus, UniProt P31652).
T1 construct: frontal cortical membranes prepared from male Sprague-Dawley rats were incubated with ^3H-paroxetine; from tissue; host or cells: frontal cortex of male Sprague-Dawley rats
The test can be described thus: Serotonin transporter affinity, 3H-paroxetine binding to frontal cortical membranes. Also on record: species or system male Sprague-Dawley rats. The note with it: 3H-paroxetine 0.1 nM, read-out: ST (Kj, nM,).
`CCCn1cc([C@H]2CC[C@@H](N3CCN(c4cccc5[nH]ccc45)CC3)CC2)c2cc(C#N)ccc21` [Example 14a, 3-{(1,4-cis)-4-[4-(1H-indol-4-yl)-piperazin-1-yl]-cyclohexyl}-1-propyl-1H-indole-5-carbonitrile]: the Ki turned out to be 17 nM. `Cn1cc([C@H]2CC[C@@H](N3CCN(c4cccc5[nH]ccc45)CC3)CC2)c2cc(C#N)ccc21` [Example 12a, 3-{(1,4-cis)-4-[4-(1H-indol-4-yl)-piperazin-1-yl]-cyclohexyl}-1-methyl-1H-indole-5-carbonitrile]: the Ki was 0.76 nM. The same measure for `Fc1ccc2[nH]cc([C@H]3CC[C@@H](N4CCN(c5cccc6cccnc56)CC4)CC3)c2c1` [Example 27a, 8-{4-[(1,4-cis)-4-(5-Fluoro-1H-indol-3-yl)-cyclohexyl] -piperazin-1-yl}-quinoline]: 8.6 nM; for `CCn1cc([C@H]2CC[C@H](N3CCN(c4cccc5[nH]ccc45)CC3)CC2)c2cc(C#N)ccc21` [Example 13b, 1-Ethyl-3-{(1,4-trans)-4-[4-(1H-indol-4-yl)-piperazin-1-yl]-cyclohexyl}-1H-indole-5-carbonitrile]: 40 nM.

On to `CCn1cc([C@H]2CC[C@@H](N3CCN(c4cccc5[nH]ccc45)CC3)CC2)c2cc(C#N)ccc21` [Example 13a, 1-Ethyl-3-{(1,4-cis)-4-[4-(1H-indol-4-yl)-piperazin-1-yl]-cyclohexyl}-1H-indole-5-carbonitrile], for which the Ki came out at 8.9 nM. Turning to `Fc1ccc2[nH]cc([C@H]3CC[C@H](N4CCN(c5cccc6cccnc56)CC4)CC3)c2c1` [Example 27b, 8-{4-[(1,4-trans)-4-(5-Fluoro-1H-indol-3-yl)-cyclohexyl] -piperazin-1-yl}-quinoline], the Ki was found to be 28 nM. The same measure for `CCCn1cc([C@H]2CC[C@H](N3CCN(c4cccc5[nH]ccc45)CC3)CC2)c2cc(C#N)ccc21` [Example 14b, 3-{(1,4-trans)-4-[4-(1H-indol-4-yl)-piperazin-1-yl]-cyclohexyl}-1-propyl-1H-indole-5-carbonitrile]: 40 nM; for `Fc1ccc2[nH]cc([C@H]3CC[C@H](N4CCN(c5cccc6[nH]ccc56)CC4)CC3)c2c1` [Example 3b, 5-Fluoro-3-[trans-4-[4-(1H-indol-4-yl)-1-piperazinyl]cyclohexyl]-1H-indole]: 10.1 nM.
